Patent publication US20170188606A1, “COMPOUNDS, COMPOSITIONS, AND METHODS FOR REDUCING OR E[…] TASTE” (Chromocell Corporation, priority 2014, published 2017)

System: bitter taste receptor (T2R)
Settings: Compound 1 3.2 mM in the presence of 825 μM rebaudioside A; HEPES buffer; FIG. 1

SMILES: CN[C@@H](Cc1c[nH]c2ccccc12)C(=O)O [Compound 1, N-methyl-L-tryptophan]
- effect on rebaudioside A response (fluorescence): Inhibition of the rebaudioside A response was observed
